miR122 inh: miR-122 Renilla sensor signal increase in Huh7, primary screen, miR-122 inhibitor project, cell-based, single point, plate reader | Huh7 miR-122 Renilla luciferase sensor, 48 h; neutral wells = 0, positive control = 100 | activation (reporter increase), % at 12.5 µM | actives 0.3% (n = 340,000);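 active = mean replicate activation score at least 90 and every replicate individually at or above 90; inconclusive = only one of the two criteria met; inactive = neither criterion met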;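 note: higher luciferase means less miR-122 activity so hits act as miR-122 inhibitors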
Yeast UUG start: alters start codon recognition fidelity in yeast. S. cerevisiae UUG-firefly luciferase reporter, luminescence/redox ratio. activity score, % at 18.7 µM. 0.13% of 350,000 active. AID 602363;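 active = replicate mean at a twofold rise or more, about +100% in these data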;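 also: firefly luciferase made from a UUG start codon reports start codon fidelity; reporter light over untreated wells divided by growth signal over untreated wells; some hits fall short of that in this replicate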
esBAF inh: Bmi1 luciferase reporter increase in mESCs, primary screen, esBAF inhibitor project, mouse ES cells, Bmi1 luciferase knock-in, single point; 24 h; 100% = twice the neutral-well signal; reporter increase, % at 12.5 µM; actives 2% (n = 350,000); in the data active = activation above about 40%; inconclusive = no clear call, values can overlap the other calls;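 note: a rise in the Bmi1 reporter signal indicates esBAF inhibition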
PglD inh: C. jejuni PglD acetyltransferase inhibitors, primary screen, biochemical, DTNB colorimetric, single point; AID 602405, 2012; purified PglD enzyme, DTNB colorimetric CoA detection; UDP-N-acetylbacillosamine N-acetyltransferase PglD (Campylobacter jejuni); actives 0.098% (n = 360,000); inhibition, % at 12.5 µM; in the data active = inhibition above about 16%, passing the limit was not always enough; inconclusive = no clear call, values can overlap the other calls
MITF TRPM1 HTS: activators of MITF-driven TRPM1 promoter reporter, primary screen, cell-based, SK-MEL-5, luciferase, single point; SK-MEL-5 TRPM1-promoter luciferase, 24 h; % of positive control, neutral wells = 0; activation, % at 12.5 µM; actives 0.75% (n = 300,000);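 active = mean activation of at least 80% with every replicate also reaching 80%; inconclusive = mean reaches 80% but some replicate falls short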
Wnt act: Wnt/beta-catenin pathway activators, primary screen, cell-based, plate reader, single point; activation, % at 9.35 µM; actives 1.2% (n = 300,000); Wnt/beta-catenin reporter cell assay, activator; AID 743398, 2014; in the data active = activation above about 30%, passing the limit was not always enough; inconclusive = no clear call, values can overlap the other calls
Each line names hits and unclear results; the compound was inactive in the other large screens. Sampled rows, rich in hits. Any-hit rate of the full collection: about 2.8%.

CCOc1ccc(N(CC(=O)Nc2ccc(C)c(C)c2)S(C)(=O)=O)cc1	esBAF inh 84
CCOc1ccc(N(CC(=O)Nc2ccccc2)S(C)(=O)=O)cc1	none (no result: esBAF inh, Wnt act)
COc1ccc(N(CC(=O)Nc2cccc(SC)c2)S(C)(=O)=O)cc1	esBAF inh 45 (no result: Wnt act)
COc1ccc(N(CC(=O)Nc2cccc(C(F)(F)F)c2)S(C)(=O)=O)cc1	none (no result: MITF TRPM1 HTS)
Cc1noc(C)c1NC(=O)N(C)C[C@@H]1Oc2ccc(NC(=O)Nc3ccc(C(F)(F)F)cc3)cc2CC(=O)N([C@@H](C)CO)C[C@@H]1C	none (no result: MITF TRPM1 HTS, Wnt act)
CO[C@@H]1CN(C)C(=O)c2ccc(NC(=O)c3ccccc3)cc2OC[C@@H](C)NC[C@H]1C	none (no result: miR122 inh, MITF TRPM1 HTS, Wnt act)
O=c1c2ccccc2ncn1C1CCCCC1	none (no result: Wnt act)
O=c1c2[nH]c3ccccc3c2ncn1C1CCCCC1	esBAF inh 62 (no result: Yeast UUG start, PglD inh, MITF TRPM1 HTS, Wnt act)
COc1ccc(NC(=O)Nc2ccc3c(c2)CC(=O)N([C@H](C)CO)C[C@@H](C)[C@H](CN(C)C(=O)Nc2ccc4c(c2)OCO4)O3)cc1	none (no result: MITF TRPM1 HTS, Wnt act)
On1onc2c3cc(-c4ccccc4)nc3ccc21	Wnt act 39 (no result: miR122 inh)
CN(C)C(=O)c1ccc(-c2cccc(-c3nc(C(=O)N(C)C)cc4c3[C@@H](CCO)N([S@](=O)C(C)(C)C)C4)c2)cc1	none (no result: miR122 inh, Yeast UUG start, MITF TRPM1 HTS, Wnt act)
COC(=O)CNC(=O)c1ccccc1	none
O=C(CNC(=O)c1ccccc1)OC1CCCCC1	Wnt act 47 (no result: miR122 inh, Yeast UUG start, esBAF inh, PglD inh)
O=C(C[C@H]1CC[C@@H]2[C@H](COC[C@@H](O)CN2Cc2cccc(F)c2)O1)NCCc1ccncc1	none (no result: MITF TRPM1 HTS, Wnt act)
CC(C)(C)c1ccc(SCCc2ccccn2)cc1	MITF TRPM1 HTS 102, Wnt act 61 (no result: miR122 inh, Yeast UUG start, esBAF inh, PglD inh)
CC(C)(C)c1ccc(S(=O)(=O)CCc2ccccn2)cc1	esBAF inh 71
Cc1ccc(S(=O)(=O)CCc2ccccn2)cc1	none (no result: Wnt act)
Cc1[nH]c(=O)c(Cc2ccccc2)c(O)c1C#N	none
Cn1c(=O)c2c(O)c(Cc3ccccc3)c(=O)[nH]c2n(C)c1=O	esBAF inh 53
Cc1nnc(SCC(=O)c2ccc(Cl)cc2)n(N)c1=O	Wnt act 43 (no result: miR122 inh, Yeast UUG start, esBAF inh, PglD inh)
Cc1ccc(NC(=O)CSc2nnc(C)c(=O)n2N)cc1Cl	none (no result: esBAF inh)
CCn1c(SCC(=O)c2ccc(C)cc2)nnc1-c1ccoc1C	esBAF inh 88 (no result: MITF TRPM1 HTS)
CCn1c(SCC(=O)c2ccc(Cl)cc2)nnc1C(C)C	Wnt act 36
O=C(C[C@H]1C=C[C@@H](NS(=O)(=O)c2ccc(F)cc2)[C@H](CO)O1)NCCc1ccncc1	none (no result: miR122 inh, MITF TRPM1 HTS, Wnt act)
CCOC(=O)c1ccc2nc(NC(=O)C(C)C)sc2c1	Wnt act inconclusive (no result: MITF TRPM1 HTS)
CN(C)S(=O)(=O)c1ccc2nc(NC(=O)c3cccnc3)sc2c1	Wnt act 38 (no result: esBAF inh)
C=CCN(CC=C)S(=O)(=O)c1ccc2nc(NC(=O)C(C)C)sc2c1	miR122 inh 122 (no result: MITF TRPM1 HTS)
CS(=O)(=O)c1ccc2nc(NC(=O)c3ccccc3Br)sc2c1	esBAF inh 58 (no result: MITF TRPM1 HTS)
CS(=O)(=O)c1ccc2nc(NC(=O)c3ccccc3Cl)sc2c1	none (no result: miR122 inh, MITF TRPM1 HTS)
COc1ccccc1C(=O)Nc1nc2ccc(S(C)(=O)=O)cc2s1	esBAF inh 49 (no result: Wnt act)
COc1ccc(NC(=O)Nc2ccc3c(c2)C(=O)N([C@H](C)CO)C[C@H](C)[C@@H](CN(C)CC2CC2)OCCCC[C@H](C)O3)cc1	none (no result: Yeast UUG start, MITF TRPM1 HTS, Wnt act)
COc1ccc(-c2cnc3c(c2)C(=O)N([C@@H](C)CO)C[C@@H](C)[C@H](CN(C)C(=O)Cc2cccnc2)O3)cc1	none (no result: MITF TRPM1 HTS, Wnt act)
C[C@H]1CN([C@@H](C)CO)C(=O)c2cc(NS(C)(=O)=O)ccc2O[C@@H]1CN(C)C(=O)NC1CCCCC1	none (no result: MITF TRPM1 HTS, Wnt act)
C[C@@H]1CN([C@H](C)CO)C(=O)c2ccccc2-c2ccccc2CO[C@@H]1CN(C)S(=O)(=O)c1ccsc1	none (no result: miR122 inh, Yeast UUG start, MITF TRPM1 HTS, Wnt act)
COC(=O)c1sccc1N/N=C/c1ccc(OC)c(OC)c1OC	esBAF inh 52
COc1ccc(/C=N/NC(=O)c2cccnc2)c2ccccc12	none
COc1ccc(/C=N/NC(=O)c2cccs2)c2ccccc12	esBAF inh 56
Cc1ccc(/C=N/NC(=O)c2cccs2)cc1[N+](=O)[O-]	MITF TRPM1 HTS 117, Wnt act 40 (no result: esBAF inh)
O=C(N/N=C/c1ccccc1[N+](=O)[O-])c1cccs1	Wnt act 45 (no result: esBAF inh, MITF TRPM1 HTS)
O=C1OC(c2ccccc2)=C/C1=C/c1cccs1	esBAF inh 26 (no result: miR122 inh)
O=C1N=C(c2ccccc2)S/C1=C\c1cccs1	none (no result: miR122 inh, Yeast UUG start, esBAF inh, PglD inh)
CCCc1nc2ccc(C)cn2c1Cc1ccccc1	esBAF inh 51 (no result: MITF TRPM1 HTS)
Cc1ccc(S(=O)(=O)Nc2cccc(-c3ccc(N4CCCCCC4)nn3)c2)c(C)c1	esBAF inh 70
Cc1ccc([N+](=O)[O-])cc1S(=O)(=O)Nc1cccc(-c2ccc(N3CCOCC3)nn2)c1	MITF TRPM1 HTS 88 (no result: miR122 inh)
COc1ccc(-c2cccc(NS(=O)(=O)c3cc([N+](=O)[O-])ccc3C)c2)nn1	miR122 inh 135
N#CCc1ccc(OC(=O)c2cccnc2Cl)cc1	esBAF inh 60, Wnt act 39
COc1ccccc1C(=O)OCC(=O)c1cccc([N+](=O)[O-])c1	none (no result: miR122 inh, Yeast UUG start, esBAF inh, PglD inh)
O=C(COC(=O)c1cccnc1Cl)c1ccc(F)cc1	none (no result: Yeast UUG start, esBAF inh, PglD inh)
CCc1ccc(C(=O)COC(=O)c2cccnc2Cl)cc1	Wnt act 44 (no result: Yeast UUG start, PglD inh)
CCc1ccc(C(=O)COC(=O)c2ccccc2OC)cc1	MITF TRPM1 HTS 87, Wnt act 50 (no result: esBAF inh)
O=C(COC(=O)c1cccnc1Cl)c1ccccc1	esBAF inh 44
C[C@@H](NC(=O)[C@@H]1[C@@H](CO)[C@@H]2Cn3c(cccc3=O)[C@H]1N2C(=O)C1CCCC1)c1ccccc1	none (no result: MITF TRPM1 HTS, Wnt act)
O=C(O)C[C@H]1C[C@H]2c3cc(NC(=O)Nc4ccccc4F)ccc3O[C@H]2[C@@H](CO)O1	none (no result: MITF TRPM1 HTS, Wnt act)
Cc1ccc(OCC(=O)Nc2cc(C(C)(C)C)on2)cc1C	none (no result: esBAF inh)
Cc1cc(NC(=O)COc2ccc(C)c(C)c2)no1	MITF TRPM1 HTS 90 (no result: Yeast UUG start, PglD inh)
Cc1cc(NC(=O)COc2ccccc2C)no1	MITF TRPM1 HTS 95 (no result: miR122 inh, Yeast UUG start, esBAF inh, PglD inh)
Cc1ccccc1OCC(=O)NC1=NCCS1	esBAF inh 44 (no result: MITF TRPM1 HTS, Wnt act)
C[C@@H]1CN([C@H](C)CO)C(=O)Cc2cc(NS(=O)(=O)c3ccc(F)cc3)ccc2O[C@H]1CN(C)C(=O)Nc1ccc2c(c1)OCO2	none (no result: Yeast UUG start, PglD inh, MITF TRPM1 HTS, Wnt act)
C[C@H](CO)N1C[C@H](C)[C@H](CN(C)Cc2ccccc2)Oc2ncc(-c3ccc(F)cc3)cc2C1=O	none (no result: MITF TRPM1 HTS, Wnt act)
CNc1ccccc1-n1ccc(-c2ccccc2)n1	esBAF inh 60 (no result: Wnt act)
C[C@@H]1CCCCO[C@H](CN(C)C(=O)Nc2ccc(F)cc2)[C@H](C)CN([C@@H](C)CO)C(=O)c2cc(NS(=O)(=O)c3ccc(Cl)cc3)ccc2O1	none (no result: MITF TRPM1 HTS, Wnt act)
